# The entries are a selection whose mix differs from that of the whole data set. Activity calls are given as the source filed them. Rule as the data show it: active = inhibition above about 25%; inactive = the rest.
# Test: unspecified inhibition readout at 50 µM (AID 740)
# Conditions: unspecified screen; stronger effect = higher value
row,Compound,inhibition
1,CP(=O)(Nc1ccccc1)Oc1ccc(F)cc1 (centres undefined),inactive: 0.36%
2,CCOC(=O)NC(Sc1ccccc1)C(Cl)(Cl)Cl (centres undefined),inactive
3,O=P1(Nc2nc3ccc(Cl)cc3s2)COc2ccccc2O1 (centres undefined),inactive
4,CP(=O)(Nc1ccccc1F)Oc1ccccc1 (centres undefined),inactive: 1.8%
5,Cc1ccccc1NP(C)(=O)Nc1ccccc1C,inactive: 1.06%
6,CCOP(C)(=S)SCC(=O)NC(C)(CC)C(=O)O (centres undefined),inactive: 0.11%
7,c1nnnn1CCn1cnnn1,inactive
8,O=C(OC1CN2CCC1CC2)c1cccc(Cl)c1 (centres undefined),inactive
9,COc1ccc(OP(C)(=O)Nc2cccc(Br)c2)cc1 (centres undefined),inactive
10,CN(C)CCOC(=O)C(O)(c1ccccc1)C1CCCCC1 (centres undefined),inactive: 0.12%
11,CP(=O)(OC12CC3CC(CC(C3)C1)C2)OC12CC3CC(CC(C3)C1)C2,inactive: 1.81%
12,CC(C)(C)c1ccc(OP(C)(=O)O)cc1,inactive
13,CP(=O)(Nc1ccc(Cl)cc1)Oc1ccc(F)cc1 (centres undefined),inactive: 0.41%
14,CC1CCN(C(=O)Oc2c(Cl)cc(Cl)c3cccnc23)CC1,inactive
15,CCN(CC)CC(O)COC(=O)C(O)(c1ccccc1)C1CCCCC1 (centres undefined),inactive
16,CP(=O)(Oc1ccccc1)N1CCOC1=O (centres undefined),inactive: 0.51%
17,Cc1c(NP(C)(=O)Oc2ccc(C(C)C)cc2)c(=O)n(-c2ccccc2)n1C (centres undefined),inactive: 0.26%
18,CC(C)CC(=O)NC(Sc1ccc(Cl)cc1)C(Cl)(Cl)Cl (centres undefined),inactive
19,COc1ccccc1OP(C)(=O)Nc1ccc(C)cc1C (centres undefined),inactive: 0.47%
20,CP(=O)(Nc1ccccn1)Oc1ccccc1 (centres undefined),inactive: 0.64%
21,CCc1ccc(OP(C)(=O)O)cc1,inactive: 0.1%
22,COc1ccc(OP(C)(=O)Nc2ccccn2)cc1 (centres undefined),inactive: 0.67%

row,Compound,inhibition
1,CN(C)CCOC(=O)C(O)(c1ccccc1)C1CCCC1 (centres undefined),inactive: 0.22%
2,Cc1nc2ccc3ccccc3c2o1.O=[N+]([O-])c1cc([N+](=O)[O-])c(O)c([N+](=O)[O-])c1,inactive
3,COc1ccccc1OP(C)(=O)Nc1ccc(C)c(C)c1 (centres undefined),inactive
4,Cc1ccc(NP(C)(=O)Oc2ccccc2)c(C)c1 (centres undefined),inactive: 0.05%
5,COc1ccccc1OP(C)(=O)Nc1ccc(C)cc1 (centres undefined),inactive: 0.7%
6,COc1ccc(OP(C)(=O)Nc2cccc(F)c2)cc1 (centres undefined),inactive
7,CCN(CC)C(=S)SC(NC=O)C(Cl)(Cl)Cl (centres undefined),inactive
8,O=C(OC1CN2CCC1CC2)C12CC3CC(CC(C3)C1)C2 (centres undefined),inactive
9,CCOP(C)(=S)SCC(=O)NC(C)C(=O)O (centres undefined),inactive: 0.11%
10,CP(=O)(Nc1ccccn1)Oc1ccc(Cl)cc1 (centres undefined),inactive
11,CP(=O)(NC(=O)Nc1ccccc1)Oc1ccccc1 (centres undefined),inactive
12,CP(=S)(Nn1cnnc1)Oc1ccccc1 (centres undefined),inactive
13,COc1ccccc1OP(C)(=O)Nc1c(C)cccc1C (centres undefined),inactive
14,O=P1(Nc2ccc(Br)cn2)COc2ccccc2OC1,inactive
15,Cc1nn(-c2ccccc2)c2c1P(=O)(N1CCOCC1)N(C)C(c1ccccc1)=N2 (centres undefined),inactive
16,Cc1nc2ccc3ccccc3c2s1.O=[N+]([O-])c1cc([N+](=O)[O-])c(O)c([N+](=O)[O-])c1,inactive: 0.71%
17,Cc1ccc(C)c(NP(C)(=O)Oc2ccccc2)c1 (centres undefined),inactive: 0.12%
18,Cc1cc(C)cc(OP(C)(=O)Nc2ccccn2)c1 (centres undefined),inactive
19,Cc1cc(C)cc(OP(C)(=O)Nc2ccc(C)cc2C)c1 (centres undefined),inactive
20,O=[N+]([O-])c1ccc2c(c1)nnn2O,inactive
21,CCOP1(=S)c2c(C)nn(CCC#N)c2N=C(c2ccc(F)cc2)N1C (centres undefined),inactive
22,O=P(Nc1nccs1)(c1ccccc1)c1nc2ccccc2s1 (centres undefined),inactive

# From PubChem BioAssay AID740 (SRMLSC, 2007)
